Reference: patent publication US10363239B2, “Method for inhibiting growth of cancer cells” (Pain Therapeutics, Inc., priority 2013, dated 2019)

By UniProt entry, the sequences of proteins in these tests, tags left out. Where a name states a change or a piece, a line headed by the entry shows the natural chain unless it says otherwise.
UniProt P21333: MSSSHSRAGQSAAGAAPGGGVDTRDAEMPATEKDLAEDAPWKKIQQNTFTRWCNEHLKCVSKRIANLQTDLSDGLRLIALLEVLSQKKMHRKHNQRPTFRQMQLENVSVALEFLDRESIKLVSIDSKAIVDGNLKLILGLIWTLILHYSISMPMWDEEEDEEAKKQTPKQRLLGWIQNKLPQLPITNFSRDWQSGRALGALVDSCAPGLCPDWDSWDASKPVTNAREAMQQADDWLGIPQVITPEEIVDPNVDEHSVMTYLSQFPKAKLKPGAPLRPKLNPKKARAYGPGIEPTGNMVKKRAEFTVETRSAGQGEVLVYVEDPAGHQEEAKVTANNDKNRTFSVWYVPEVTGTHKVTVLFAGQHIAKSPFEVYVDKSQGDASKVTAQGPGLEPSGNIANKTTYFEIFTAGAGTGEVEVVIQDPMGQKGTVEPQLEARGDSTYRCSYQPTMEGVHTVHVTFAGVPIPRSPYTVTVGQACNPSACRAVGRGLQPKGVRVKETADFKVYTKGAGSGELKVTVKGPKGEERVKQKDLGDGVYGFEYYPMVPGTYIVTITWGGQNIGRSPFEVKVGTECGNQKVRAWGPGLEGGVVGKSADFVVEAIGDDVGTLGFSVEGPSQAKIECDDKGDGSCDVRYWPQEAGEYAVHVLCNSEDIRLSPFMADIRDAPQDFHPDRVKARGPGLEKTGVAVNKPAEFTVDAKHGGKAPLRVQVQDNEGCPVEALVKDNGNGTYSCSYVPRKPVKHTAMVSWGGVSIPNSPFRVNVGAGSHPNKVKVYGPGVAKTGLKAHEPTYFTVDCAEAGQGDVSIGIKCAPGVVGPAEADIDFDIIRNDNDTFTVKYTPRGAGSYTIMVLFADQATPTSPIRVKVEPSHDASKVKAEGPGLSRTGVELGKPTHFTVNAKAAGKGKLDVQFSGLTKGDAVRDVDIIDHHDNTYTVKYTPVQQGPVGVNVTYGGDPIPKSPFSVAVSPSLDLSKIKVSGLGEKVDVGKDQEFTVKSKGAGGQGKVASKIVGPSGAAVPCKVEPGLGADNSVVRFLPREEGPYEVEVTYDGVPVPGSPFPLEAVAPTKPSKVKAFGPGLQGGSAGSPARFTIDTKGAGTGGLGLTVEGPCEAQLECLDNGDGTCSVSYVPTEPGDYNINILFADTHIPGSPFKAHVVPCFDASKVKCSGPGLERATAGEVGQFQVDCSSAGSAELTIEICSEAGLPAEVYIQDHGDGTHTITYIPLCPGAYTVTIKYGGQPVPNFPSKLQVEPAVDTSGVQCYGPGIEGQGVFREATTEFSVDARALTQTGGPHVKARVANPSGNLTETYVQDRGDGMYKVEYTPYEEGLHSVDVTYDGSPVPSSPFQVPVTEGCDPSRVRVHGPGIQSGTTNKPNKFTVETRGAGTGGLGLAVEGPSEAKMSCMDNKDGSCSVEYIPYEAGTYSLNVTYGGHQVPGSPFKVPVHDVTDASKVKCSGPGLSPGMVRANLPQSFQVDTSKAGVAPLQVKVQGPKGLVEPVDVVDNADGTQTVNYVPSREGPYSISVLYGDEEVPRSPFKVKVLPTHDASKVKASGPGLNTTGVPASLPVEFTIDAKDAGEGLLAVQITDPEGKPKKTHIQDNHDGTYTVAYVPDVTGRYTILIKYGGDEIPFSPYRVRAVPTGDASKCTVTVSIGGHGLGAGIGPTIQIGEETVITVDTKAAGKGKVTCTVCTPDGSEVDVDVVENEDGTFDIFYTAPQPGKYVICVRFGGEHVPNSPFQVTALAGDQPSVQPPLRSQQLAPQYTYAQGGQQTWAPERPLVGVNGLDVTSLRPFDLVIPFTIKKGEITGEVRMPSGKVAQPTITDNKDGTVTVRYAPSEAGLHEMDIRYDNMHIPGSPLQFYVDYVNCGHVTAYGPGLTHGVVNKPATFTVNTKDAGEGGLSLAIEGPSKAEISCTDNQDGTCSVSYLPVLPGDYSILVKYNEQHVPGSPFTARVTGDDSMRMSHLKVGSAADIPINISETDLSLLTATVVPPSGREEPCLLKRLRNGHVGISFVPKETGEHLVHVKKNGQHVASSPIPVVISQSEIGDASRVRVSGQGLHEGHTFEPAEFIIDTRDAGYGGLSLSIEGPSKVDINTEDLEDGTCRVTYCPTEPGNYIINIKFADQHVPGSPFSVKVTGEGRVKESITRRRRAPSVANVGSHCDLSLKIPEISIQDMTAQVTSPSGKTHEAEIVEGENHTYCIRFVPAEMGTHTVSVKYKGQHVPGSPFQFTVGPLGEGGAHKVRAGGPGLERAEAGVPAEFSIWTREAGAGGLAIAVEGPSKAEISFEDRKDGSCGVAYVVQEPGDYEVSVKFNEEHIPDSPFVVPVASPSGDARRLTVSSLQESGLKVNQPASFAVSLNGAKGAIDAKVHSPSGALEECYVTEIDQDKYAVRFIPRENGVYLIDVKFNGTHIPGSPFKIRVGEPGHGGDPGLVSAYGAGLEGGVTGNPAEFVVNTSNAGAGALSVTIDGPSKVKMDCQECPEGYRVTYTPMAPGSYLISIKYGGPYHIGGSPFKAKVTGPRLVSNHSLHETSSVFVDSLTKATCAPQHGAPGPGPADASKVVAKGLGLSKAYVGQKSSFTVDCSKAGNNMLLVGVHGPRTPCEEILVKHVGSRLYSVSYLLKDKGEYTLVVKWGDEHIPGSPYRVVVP

Experiments:
[1] = target: FLNA pentapeptide of SEQ ID NO: 1 (Bn-VAKGL) (Homo sapiens, UniProt P21333); assay: FITC-NLX-based FLNA screening assay (inhibition of FITC-naloxone binding to Bn-VAKGL on streptavidin plates); settings: read-out: Percent Binding Inhibition
[2] = test system: mu opiate receptor (MOR); assay: MOR agonist activity using [35S]GTPγS binding assay in striatal membranes; format: biochemical; settings: Series C-2

## O=C1CN(Cc2ccccc2)C2(CCN(C3CCCCC3)CC2)N1 [C0137M(P7)]
[1]
  inhibition at 0.01 µM: 42.4%
  inhibition at 0.1 µM: 49.9%
  inhibition at 1 µM: 61.2%

## CC1CCC(C(C)C)C(OCC(O)Cn2ccnc2)C1 (stereo not drawn) [Compound A0039]
[1]
  inhibition at 0.01 µM: 49%
  inhibition at 0.1 µM: 53.5%
  inhibition at 1 µM: 60.3%

## COc1c2c(cc3c1C(CC(=O)Cc1ccccc1F)[N+](C)(C)CC3)OCO2 (stereo not drawn) [Compound B0055]
[1]
  inhibition at 0.01 µM: 63.2%
  inhibition at 0.1 µM: 68.2%
  inhibition at 1 µM: 73.9%

## O=C1CN(Cc2ccccc2)C2(CCN(S(=O)(=O)c3cc(Cl)cc(Cl)c3O)CC2)N1 [Compound C0138M]
[1]
  inhibition at 0.01 µM: 53%
  inhibition at 0.1 µM: 52%
  inhibition at 1 µM: 59.5%

## O=S(=O)(c1ccc(F)cc1)N1CCOC12CCN(CC1CC1)CC2 [F-C0134]
[2]; 0.1 μM compound, relative to DAMGO
  % DAMGO (0.1 μM): 138.1%
[2]; 0.1 μM compound, [35S]GTPγS binding to Gαo, striatal membranes
  MOR agonist activity, percent [35S]GTPγS binding at the stated compound concentration: 290.6%
[2]; 1 μM compound + 1 μM β-FNA
  MOR agonist activity, percent [35S]GTPγS binding at the stated compound concentration: 66.6%
[2]; 1 μM compound + β-FNA, relative to DAMGO + BFNA
  % DAMGO + BFNA: 116.2%
[2]; 1 μM compound, relative to DAMGO
  % DAMGO (1 μM): 111.4%
[2]; 1 μM compound, [35S]GTPγS binding to Gαo, striatal membranes
  MOR agonist activity, percent [35S]GTPγS binding at the stated compound concentration: 378.9%
[1]
  inhibition at 0.01 µM: 37.4%
  inhibition at 0.1 µM: 45.7%
  inhibition at 1 µM: 53.1%
